Results from US20070149457A1, “Stable solid forms of enterostatin” (priority 2005, published 2007).

Assay: Humidity stress experiments at 58% relative humidity
Type: physicochemical
Settings: 58% RH
Source text: A sample of this enterostatin acetate, 1-hydroxy-2-naphthoic acid co-complex of the invention was stressed at 58% relative humidity for 4 or 10 days.
A sample of this enterostatin chloride, 1-hydroxy-2-naphthoic acid co-complex of the invention was stressed at 58% relative humidity for 4 or 10 days.
A sample of each co-complex of the above examples was stressed at 58% relative humidity for either 4 or 10 days. […] The co-complex comprising enterostatin sulfate and piperazine as the guest (Example 6) was a white film after 4 days.
The cocrystal guests piperazine and 1-OH-2-napthoic acid were stressed at 58% relative humidity.

| Observations after humidity stress (10 days) | Substance | Observations after humidity stress (4 days) |
| --- | --- | --- |
| Tacky white goo | Enterostatin Phosphate, Adipic Acid [Example 9] | – |
| – | Enterostatin Sulfate, Piperazine [Example 6] | Transparent white film |
| – | Enterostatin Phosphate, Piperazine [Example 8] | Rounded thick tacky solid |
| Deliquesced | Enterostatin Acetate, Gentisic Acid [Example 4] | – |
